According to patent publication US20260382731A1, “BCL-2/BCL-XL PROTEIN DEGRADER AND USE THEREOF” (published 2026):
pIC50: −log10 of the molar value.

System: MOLT-4 cells
Test: Cell viability assay, MOLT-4 (CellTiter-Glo, 72 h)
Conditions: read-out: MOLT4 Cell viability IC50
Procedure: Human T-ALL cell MOLT-4 or SCLC NCI-H146 was cultured using standard cell culture conditions in RPMI-1640 supplemented with 10% FBS in humidified incubator at 37 °C, 5% CO2. To assess the effect of BCL-XL PROTAC degraders on cell viability, exponentially growing cells were seeded at a density of 10,000 cells/well in 96-well plates. After cell seeding, serially-diluted compound or DMSO was added to the cells (in concentration ranging from 0 to 10 uM, 3* dilution series), and plates were incubated for 72 hours. Cell viability was measured using a CellTiter-Glo Luminescent Cell Viability Assay kit (Promega) according to the manufacturer's protocol. The luminescence signal of treated cells was normalized to DMSO control. The dose response curves and IC50 values were generated using Prism.

Row | SMILES | pIC50
1 | CCn1c(C)c(C(=O)N2CC3(CCOCC3)C2)c(-c2cc(F)cc(N3CCN(c4ccc(NS(=O)(=O)c5ccc(N[C@H](CCN6CCN(C(=O)CCCCCC(=O)N[C@H](C(=O)N7C[C@H](O)C[C@H]7C(=O)N[C@@H](C)c7ccc(-c8scnc8C)cc7)C(C)(C)C)CC6)CSc6ccccc6)c(S(=O)(=O)C(F)(F)F)c5)cc4)CC3)c2)c1-c1ccc(F)cc1 | 7.26
2 | CCn1c(C)c(S(C)(=O)=O)c(-c2cc(F)cc(N3CCN(c4ccc(NS(=O)(=O)c5ccc(N[C@H](CCN6CCN(CCCCCC(=O)N[C@H](C(=O)N7C[C@H](O)C[C@H]7C(=O)N[C@@H](C)c7ccc(-c8scnc8C)cc7)C(C)(C)C)CC6)CSc6ccccc6)c(S(=O)(=O)C(F)(F)F)c5)cc4)CC3)c2)c1-c1ccc(F)cc1 | 7.74
3 | CCn1c(C)c(S(=O)(=O)N2C[C@H](O)[C@@H](F)C2)c(-c2cc(F)cc(N3CCN(c4ccc(NS(=O)(=O)c5ccc(N[C@H](CCN6CCN(C(=O)CCCCCC(=O)N[C@H](C(=O)N7C[C@H](O)C[C@H]7C(=O)N[C@@H](C)c7ccc(-c8scnc8C)cc7)C(C)(C)C)CC6)CSc6ccccc6)c(S(=O)(=O)C(F)(F)F)c5)cc4)CC3)c2)c1-c1ccc(F)cc1 | 7.72
4 | CCn1c(C)c(S(C)(=O)=NC)c(-c2cc(F)cc(N3CCN(c4ccc(NS(=O)(=O)c5ccc(N[C@H](CCN6CCN(C(=O)CCCCCC(=O)N[C@H](C(=O)N7C[C@H](O)C[C@H]7C(=O)N[C@@H](C)c7ccc(-c8scnc8C)cc7)C(C)(C)C)CC6)CSc6ccccc6)c(S(=O)(=O)C(F)(F)F)c5)cc4)CC3)c2)c1-c1ccc(F)cc1 (stereo partly shown) | 7.02
5 | CCn1c(C)c(C(=O)N2CC[C@H](O)C2)c(-c2cc(F)cc(N3CCN(c4ccc(NS(=O)(=O)c5ccc(N[C@H](CCN6CCN(C(=O)NCCCCCC(=O)N[C@H](C(=O)N7C[C@H](O)C[C@H]7C(=O)N[C@@H](C)c7ccc(-c8scnc8C)cc7)C(C)(C)C)CC6)CSc6ccccc6)c(S(=O)(=O)C(F)(F)F)c5)cc4)CC3)c2)c1-c1ccc(F)cc1 | 7.02
6 | CCn1c(C)c(C(=O)N2CC3COCC3C2)c(-c2cc(F)cc(N3CCN(c4ccc(NS(=O)(=O)c5ccc(N[C@H](CCN6CCN(C(=O)CCCCCC(=O)N[C@H](C(=O)N7C[C@H](O)C[C@H]7C(=O)N[C@@H](C)c7ccc(-c8scnc8C)cc7)C(C)(C)C)CC6)CSc6ccccc6)c(S(=O)(=O)C(F)(F)F)c5)cc4)CC3)c2)c1-c1ccc(F)cc1 (stereo partly shown) | 6.85
7 | CCn1c(C)c(C(=O)N2CC[C@H](F)C2)c(-c2cc(F)cc(N3CCN(c4ccc(NS(=O)(=O)c5ccc(N[C@H](CCN6CCN(C(=O)CCCCCC(=O)N[C@H](C(=O)N7C[C@H](O)C[C@H]7C(=O)N[C@@H](C)c7ccc(-c8scnc8C)cc7)C(C)(C)C)CC6)CSc6ccccc6)c(S(=O)(=O)C(F)(F)F)c5)cc4)CC3)c2)c1-c1ccc(F)cc1 | 6.96
8 | CCn1c(C)c(S(C)(=O)=O)c(-c2cc(F)cc(N3CCN(c4ccc(NS(=O)(=O)c5ccc(N[C@H](CCN6CCN(C(=O)CC7CCC(C(=O)N[C@H](C(=O)N8C[C@H](O)C[C@H]8C(=O)N[C@@H](C)c8ccc(-c9scnc9C)cc8)C(C)(C)C)CC7)CC6)CSc6ccccc6)c(S(=O)(=O)C(F)(F)F)c5)cc4)CC3)c2)c1-c1ccc(F)cc1 (stereo partly shown) | 7.07
9 | CCn1c(C)c(S(C)(=O)=O)c(-c2cc(F)cc(N3CCN(c4ccc(NS(=O)(=O)c5ccc(N[C@H](CCN6CCN(C(=O)CC7CCC(CC(=O)N[C@H](C(=O)N8C[C@H](O)C[C@H]8C(=O)N[C@@H](C)c8ccc(-c9scnc9C)cc8)C(C)(C)C)CC7)CC6)CSc6ccccc6)c(S(=O)(=O)C(F)(F)F)c5)cc4)CC3)c2)c1-c1ccc(F)cc1 (stereo partly shown) | 7.08
10 | CCn1c(C)c(C(=O)N2CCC(S(C)(=O)=O)C2)c(-c2cc(F)cc(N3CCN(c4ccc(NS(=O)(=O)c5ccc(N[C@H](CCN6CCN(C(=O)CCCCCC(=O)N[C@H](C(=O)N7C[C@H](O)C[C@H]7C(=O)N[C@@H](C)c7ccc(-c8scnc8C)cc7)C(C)(C)C)CC6)CSc6ccccc6)c(S(=O)(=O)C(F)(F)F)c5)cc4)CC3)c2)c1-c1ccc(F)cc1 (stereo partly shown) | 7.72
11 | CCn1c(C)c(C(=O)N2CC[C@@H](OC)C2)c(-c2cc(F)cc(N3CCN(c4ccc(NS(=O)(=O)c5ccc(N[C@H](CCN6CCN(C(=O)CCCCCC(=O)N[C@H](C(=O)N7C[C@H](O)C[C@H]7C(=O)N[C@@H](C)c7ccc(-c8scnc8C)cc7)C(C)(C)C)CC6)CSc6ccccc6)c(S(=O)(=O)C(F)(F)F)c5)cc4)CC3)c2)c1-c1ccc(F)cc1 | 7.40
12 | CCn1c(C)c(S(C)(=O)=O)c(-c2cc(F)cc(N3CCN(c4ccc(NS(=O)(=O)c5ccc(N[C@H](CCN6CCC(NC(=O)NCCCCCC(=O)N[C@H](C(=O)N7C[C@H](O)C[C@H]7C(=O)N[C@@H](C)c7ccc(-c8scnc8C)cc7)C(C)(C)C)CC6)CSc6ccccc6)c(S(=O)(=O)C(F)(F)F)c5)cc4)CC3)c2)c1-c1ccc(F)cc1 | 7.21
13 | CCn1c(C)c(C(=O)N2C[C@H](OC)[C@@H](F)C2)c(-c2cc(F)cc(N3CCN(c4ccc(NS(=O)(=O)c5ccc(N[C@H](CCN6CCN(C(=O)CCCCCC(=O)N[C@H](C(=O)N7C[C@H](O)C[C@H]7C(=O)N[C@@H](C)c7ccc(-c8scnc8C)cc7)C(C)(C)C)CC6)CSc6ccccc6)c(S(=O)(=O)C(F)(F)F)c5)cc4)CC3)c2)c1-c1ccc(F)cc1 | 6.60
14 | CCn1c(C)c(S(C)(=O)=O)c(-c2cc(F)cc(N3CCN([C@H]4CC[C@H](NS(=O)(=O)c5ccc(N[C@H](CCN6CCN(C7CCN(CCOc8cc([C@@H](C(=O)N9C[C@H](O)C[C@H]9C(=O)N[C@@H](CO)c9ccc(-c%10scnc%10C)cc9)C(C)C)on8)CC7)CC6)CSc6ccccc6)c(S(=O)(=O)C(F)(F)F)c5)CC4)CC3)c2)c1-c1ccc(F)cc1 | 6.23
15 | Cc1ncsc1-c1ccc([C@H](C)NC(=O)[C@@H]2C[C@@H](O)CN2C(=O)[C@@H](NC(=O)CCCCCC(=O)N2CCN(CC[C@H](CSc3ccccc3)Nc3ccc(S(=O)(=O)Nc4ccc(N5CCN(c6cc(F)cc(-c7c(C(=O)N8CC[C@H](O)C8)c(C)n(CC(F)(F)F)c7-c7ccc(F)cc7)c6)CC5)cc4)cc3S(=O)(=O)C(F)(F)F)CC2)C(C)(C)C)cc1 | 6.66
16 | CCn1c(C)c(S(=O)(=O)N2CCN(C)CC2)c(-c2cc(F)cc(N3CCN(c4ccc(NS(=O)(=O)c5ccc(N[C@H](CCN6CCN(C(=O)CCCCCC(=O)N[C@H](C(=O)N7C[C@H](O)C[C@H]7C(=O)N[C@@H](C)c7ccc(-c8scnc8C)cc7)C(C)(C)C)CC6)CSc6ccccc6)c(S(=O)(=O)C(F)(F)F)c5)cc4)CC3)c2)c1-c1ccc(F)cc1 | 7.89
17 | CCn1c(C)c(S(C)(=O)=O)c(-c2cc(F)cc(N3CCN(c4ccc(NS(=O)(=O)c5ccc(N[C@H](CCN6CCN(CCCCCC(=O)N[C@H](C(=O)N7C[C@H](O)C[C@H]7C(=O)NC7(c8ccc(-c9scnc9C)cc8)CCC7)C(C)(C)C)CC6)CSc6ccccc6)c(S(=O)(=O)C(F)(F)F)c5)cc4)CC3)c2)c1-c1ccc(F)cc1 | 7.82
18 | CCn1c(C)c(S(C)(=O)=O)c(-c2cc(F)cc(N3CCN([C@H]4CC[C@@H](NS(=O)(=O)c5ccc(N[C@H](CCN6CCN(C7CCN(CCOc8cc([C@@H](C(=O)N9C[C@H](O)C[C@H]9C(=O)N[C@@H](CO)c9ccc(-c%10scnc%10C)cc9)C(C)C)on8)CC7)CC6)CSc6ccccc6)c(S(=O)(=O)C(F)(F)F)c5)CC4)CC3)c2)c1-c1ccc(F)cc1 | 4.39
19 | CCn1c(C)c(S(=O)(=O)NCC2CCOCC2)c(-c2cc(F)cc(N3CCN(c4ccc(NS(=O)(=O)c5ccc(N[C@H](CCN6CCN(C(=O)CCCCCC(=O)N[C@H](C(=O)N7C[C@H](O)C[C@H]7C(=O)N[C@@H](C)c7ccc(-c8scnc8C)cc7)C(C)(C)C)CC6)CSc6ccccc6)c(S(=O)(=O)C(F)(F)F)c5)cc4)CC3)c2)c1-c1ccc(F)cc1 | 7.44
20 | CCn1c(C)c(C(=O)N2CC[C@](C)(O)C2)c(-c2cc(F)cc(N3CCN(c4ccc(NS(=O)(=O)c5ccc(N[C@H](CCN6CCN(C(=O)CCCCCC(=O)N[C@H](C(=O)N7C[C@H](O)C[C@H]7C(=O)N[C@@H](C)c7ccc(-c8scnc8C)cc7)C(C)(C)C)CC6)CSc6ccccc6)c(S(=O)(=O)C(F)(F)F)c5)cc4)CC3)c2)c1-c1ccc(F)cc1 | 6.89
21 | CCn1c(C)c(S(C)(=O)=O)c(-c2cc(F)cc(N3CCN(c4ncc(NS(=O)(=O)c5ccc(N[C@H](CCN6CCN(CCCc7cc([C@@H](C(=O)N8C[C@H](O)C[C@H]8C(=O)N[C@@H](CO)c8ccc(-c9scnc9C)cc8)C(C)C)on7)CC6)CSc6ccccc6)c(S(=O)(=O)C(F)(F)F)c5)cn4)CC3)c2)c1-c1ccc(F)cc1 | 6.44
22 | CCn1c(C)c(S(C)(=O)=O)c(-c2cc(F)cc(N3CCN(c4ccc(NS(=O)(=O)c5ccc(N[C@H](CCN6CCN(C(=O)CCOCCC(=O)N[C@H](C(=O)N7C[C@H](O)C[C@H]7C(=O)N[C@@H](C)c7ccc(-c8scnc8C)cc7)C(C)(C)C)CC6)CSc6ccccc6)c(S(=O)(=O)C(F)(F)F)c5)cc4)CC3)c2)c1-c1ccc(F)cc1 | 6.51
23 | CCn1c(C)c(S(C)(=O)=O)c(-c2cc(F)cc(N3CCN(c4ccc(NS(=O)(=O)c5ccc(N[C@H](CCN6CCN(C(=O)NCCCCCC(=O)N[C@H](C(=O)N7C[C@H](O)C[C@H]7C(=O)N[C@@H](C)c7ccc(-c8scnc8C)cc7)C(C)(C)C)CC6)CSc6ccccc6)c(S(=O)(=O)C(F)(F)F)c5)cc4)CC3)c2)c1-c1ccc(F)cc1 | 7.40
24 | CCn1c(C)c(S(C)(=O)=O)c(-c2cc(F)cc(N3CCN(c4ccc(NS(=O)(=O)c5ccc(N[C@H](CCN6CCN(C(=O)CCOCCOCC(=O)N[C@H](C(=O)N7C[C@H](O)C[C@H]7C(=O)N[C@@H](C)c7ccc(-c8scnc8C)cc7)C(C)(C)C)CC6)CSc6ccccc6)c(S(=O)(=O)C(F)(F)F)c5)cc4)CC3)c2)c1-c1ccc(F)cc1 | 7.55
25 | CCn1c(C)c(S(C)(=O)=O)c(-c2cc(F)cc(N3CCN(c4ccc(NS(=O)(=O)c5ccc(N[C@H](CCN6CCN(C(=O)CCCCCC(=O)N[C@H](C(=O)N7C[C@H](O)C[C@H]7C(=O)NC7(c8ccc(-c9scnc9C)cc8)CC7)C(C)(C)C)CC6)CSc6ccccc6)c(S(=O)(=O)C(F)(F)F)c5)cc4)CC3)c2)c1-c1ccc(F)cc1 | 7.43
